Assay results published in patent publication US20210261561A1, “BICYCLIC HETEROCYCLE DERIVATIVES HAVING SELECTIVE BACE1 INHIBITORY ACTIVITY” (SHIONOGI & CO., LTD., priority 2018, published 2021).

By UniProt entry, the sequences of proteins in these tests, tags left out. Residues count along the entry.
UniProt P56817, 46-501 limits assumed: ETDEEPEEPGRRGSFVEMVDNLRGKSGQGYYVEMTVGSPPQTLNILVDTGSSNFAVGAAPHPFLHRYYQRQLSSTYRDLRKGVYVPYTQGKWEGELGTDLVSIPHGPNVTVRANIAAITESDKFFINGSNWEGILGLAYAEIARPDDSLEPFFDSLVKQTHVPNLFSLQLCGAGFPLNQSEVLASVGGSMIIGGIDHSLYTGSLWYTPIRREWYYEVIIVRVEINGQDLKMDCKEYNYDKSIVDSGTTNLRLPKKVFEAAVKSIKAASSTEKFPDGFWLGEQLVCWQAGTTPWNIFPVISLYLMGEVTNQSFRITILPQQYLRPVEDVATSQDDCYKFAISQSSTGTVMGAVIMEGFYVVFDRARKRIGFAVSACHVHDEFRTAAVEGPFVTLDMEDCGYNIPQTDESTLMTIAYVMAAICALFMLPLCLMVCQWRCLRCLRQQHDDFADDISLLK
UniProt Q9Y5Z0, 63-518 limits assumed: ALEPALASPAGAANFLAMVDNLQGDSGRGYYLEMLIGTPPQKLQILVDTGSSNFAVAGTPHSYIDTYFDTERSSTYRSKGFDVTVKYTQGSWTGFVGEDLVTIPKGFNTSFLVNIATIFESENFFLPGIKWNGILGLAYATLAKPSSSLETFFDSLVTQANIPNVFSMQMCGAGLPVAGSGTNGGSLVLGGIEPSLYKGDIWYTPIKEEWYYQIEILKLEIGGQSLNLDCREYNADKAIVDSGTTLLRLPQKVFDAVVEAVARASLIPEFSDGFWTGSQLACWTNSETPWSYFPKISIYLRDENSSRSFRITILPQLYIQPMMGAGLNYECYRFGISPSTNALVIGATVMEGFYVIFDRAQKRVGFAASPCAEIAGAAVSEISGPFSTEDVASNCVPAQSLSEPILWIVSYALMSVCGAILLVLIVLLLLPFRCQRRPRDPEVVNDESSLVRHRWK
UniProt Q9JL18, 63-514 limits assumed: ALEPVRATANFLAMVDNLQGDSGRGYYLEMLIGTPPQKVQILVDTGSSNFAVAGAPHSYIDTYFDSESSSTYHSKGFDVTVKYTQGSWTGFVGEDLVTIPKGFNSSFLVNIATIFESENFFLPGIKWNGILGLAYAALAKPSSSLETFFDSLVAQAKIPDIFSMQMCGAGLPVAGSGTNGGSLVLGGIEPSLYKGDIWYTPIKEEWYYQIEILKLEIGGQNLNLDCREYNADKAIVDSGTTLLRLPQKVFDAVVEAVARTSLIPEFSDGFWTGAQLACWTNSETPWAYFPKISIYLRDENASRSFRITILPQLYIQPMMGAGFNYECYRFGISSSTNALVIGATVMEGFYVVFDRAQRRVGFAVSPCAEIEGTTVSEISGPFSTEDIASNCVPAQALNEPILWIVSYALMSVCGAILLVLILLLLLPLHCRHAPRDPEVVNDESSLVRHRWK

What was measured:
BACE1 [1] = target: T1, BACE1 (Homo sapiens, UniProt P56817); assay: BACE1 biochemical competitive radioligand binding assay (Test Example 1-1/1-2); conditions: read-out: Binding BACE1 Ki; competition with tritiated non-selective BACE1/BACE2 inhibitor, BACE1-containing HEK 293 derived membrane, pH 6.2
Protocol: (§1) To explore the BACE1 versus BACE2 enzyme selectivity, the binding affinity (Ki) to the respective purified enzymes was determined in a competitive radioligand binding assay, i.e. in competition with a tritiated non-selective BACE1/BACE2 inhibitor.
(§2) Briefly in test tubes, compounds of interest were combined with the radioligand and the BACE1 or BACE2-containing HEK 293 derived membrane. The competitive binding reaction was performed at pH 6.2 and incubated at room temperature until the equilibrium was reached. Afterwards free radioligand was separated from bound radioligand by filtration with a Brandell 96 harvester. The filter was washed 4 times with washing buffer and the filter sheets were punched into scintillation vials. Ultima Gold scintillation cocktail was added and samples were shaken. The day after, the vials were counted in a Tricarb scintillation counter to obtain the disintegrations per minute (dpm) of the bound radioligand.
(§3) Calculating the % CTL=(sample/HC)*100, with HC being the high control, i.e. total binding of radioligand, allowed to fit curves through the data points of the different doses of test compound. The pIC50 or IC50 was calculated and could be converted to Ki by the formula Ki=IC50/(1+([RL]/Kd)), with [RL] being the used concentration of radioligand and Kd the determinated dissociation constant of the radioligand-membrane complex. […]

BACE2 [2] = target: T2, BACE2 (Homo sapiens, UniProt Q9Y5Z0); assay: BACE2 biochemical competitive radioligand binding assay (Test Example 1-1/1-2); conditions: read-out: Binding BACE2 Ki; competition with tritiated non-selective BACE1/BACE2 inhibitor, BACE2-containing HEK 293 derived membrane, pH 6.2
Protocol: as §1, §2, §3

BACE1 [3] = target: T1, BACE1; assay: BACE1 biochemical FRET based assay - Method 1 (Test Example 2-2); conditions: 0.04 μg/mL BACE1, 450 minutes, Citrate buffer pH 5.0
From the text: (§4) This assay is a Fluorescence Resonance Energy Transfer Assay (FRET) based assay. The substrate for this assay is an APP derived 13 amino acids peptide that contains the ‘Swedish’ Lys-Met/Asn-Leu mutation of the amyloid precursor protein (APP) beta-site secretase cleavage site. This substrate also contains two fluorophores: (7-methoxycoumarin-4-yl) acetic acid (Mca) is a fluorescent donor with excitation wavelength at 320 nm and emission at 405 nm and 2,4-dinitrophenol (Dnp) is a proprietary quencher acceptor. […] Upon cleavage by BACE1, the fluorophore Mca is separated from the quenching group Dnp, restoring the full fluorescence yield of the donor. The increase in fluorescence is linearly related to the rate of proteolysis.
Briefly in a 384-well format recombinant BACE1 protein in a final concentration of 0.04 μg/mL is incubated for 450 minutes at room temperature with […] substrate in incubation buffer (final concentrations: 33.3 mM Citrate buffer pH 5.0, 0.033% PEG, 3% DMSO) in the absence or presence of compound. Next the amount of proteolysis is directly measured by fluorescence measurement at T=0′-120′ and T=450′ (excitation at 320 nm and emission at 405 nm). Results are expressed in RFU (Relative Fluorescence Units), as difference between T450 and Tx (Tx is chosen depending on the reaction speed between 0 and 120 minutes.). […]

BACE1 [4] = target: T1, BACE1; assay: BACE1 cellular αLisa assay in SKNBE2 cells, Abeta 1-42 (Test Example 2-3); conditions: SKNBE2 cells expressing hAPP695, 18 hours incubation
Protocol: In two αLisa assays the levels of Abeta 1-42 or Abeta total produced and secreted into the medium of human neuroblastoma SKNBE2 cells are quantified. The assays are based on the human neuroblastoma SKNBE2 expressing the wild type Amyloid Precursor Protein (hAPP695). The compounds are diluted and added to these cells, incubated for 18 hours and then measurements of Abeta 1-42 or Abeta total are taken. Abeta 1-42 or Abeta total are measured by sandwich αLisa using biotinylated antibody AbN/25 attached to streptavidin coated donor beads and antibody cAb42/26 or Ab 4G8 conjugated acceptor beads for the detection of Abeta 1-42 or Abeta total respectively. In the presence of Abeta 1-42 or Abeta total, the beads come into close proximity. The excitation of the donor beads provokes the release of singlet oxygen molecules that trigger a cascade of energy transfer in the acceptor beads, resulting in light emission. Light emission is measured after 1 h incubation (excitation at […] and emission at 615 nm).
(§5) Data are analysed using Screener (Registered trademark) (Genedata, Switzerland). Data were normalized and % inhibition=100−[(sample−LC)/(HC−LC))*100], was plotted versus the log concentration of the test compound. Curves were analysed using non-linear regression analysis and IC50 values (inhibitory concentration causing 50% inhibition of activity) were derived from individual curves. […]

BACE2 [5] = target: T2, BACE2; assay: BACE2 biochemical FRET based assay (Test Example 2-4); conditions: recombinant BACE2 0.4 μg/mL, 10 μM substrate, 450 minutes, pH 5.0
From the text: as §4, with “assay” for “assay is an APP derived 13 amino acids peptide that”, “beta-secretase” for “beta-site secretase”, “the beta-secretase,” for “BACE1,”
Briefly in a 384-well format recombinant BACE2 protein in a final concentration of 0.4 μg/mL is incubated for 450 minutes at room temperature with 10 μM substrate in incubation buffer (final concentrations: 33.3 mM Citrate buffer pH 5.0, 0.033% PEG, 2% DMSO) in the absence or presence of compound. Next the amount of proteolysis is directly measured by fluorescence measurement at T=0 and T=450 (excitation at 320 nm and emission at 405 nm). Results are expressed in RFU (Relative Fluorescence Units), as difference between T450 and TO.
Data are analysed using Screener (Registered trademark) (Genedata, Switzerland). […]

BACE2 [6] = target: BACE2 (Mus musculus, UniProt Q9JL18); assay: BACE2 cellular assay in MIN6 cells, secreted TMEM27 (Test Example 2-5); conditions: 24 hours incubation, secreted TMEM27 by MSD
Protocol: Cellular BACE2 activity was measured by determination of the level of secreted TMEM27 into the medium of MIN6 cells using an MSD platform. The assay is based on the mouse insulinoma MIN6 cells expressing Flag-V5-TMEM27-HA. When BACE2 cleaves TMEM27 the N-terminal part of TMEM27 with the V5-Flag tag will be shed into the medium, and the amount of this cleaved product is measured with the MSD assay.
Briefly in a 96-well format the cells are incubated for 24 hours in the presence of the compound followed by the measurement of secreted TMEM27 in the medium via MSD using FLAG-L5 coating antibody and a V5 detection antibody. When TMEM27 is captured on the electrode surface of the multi-array microplate the detection antibody, conjugated with the sulfo-Tag™, is in close proximity of the surface, it generates a light via a series of reduction and oxidation reactions. The intensity of the emitted light is measured with the MSD imager to provide a quantitative measure for the analytes in the sample.
as §5

BACE1 [7] = target: T1, BACE1; assay: BACE1 biochemical FRET based assay (Test Example 2-1); conditions: for selectivity: BACE2 IC50 over BACE1 IC50 (FRET); for IC50: read-out: BACE1 IC50, FRET, 0.04 μg/mL BACE1, 450 minutes, Citrate buffer pH 5.0
From the text: as §4
Briefly in a 384-well format recombinant BACE1 protein in a final concentration of 0.04 μg/mL is incubated for 450 minutes at room temperature with […] substrate in incubation buffer (final concentrations: 33.3 mM Citrate buffer pH 5.0, 0.033% PEG, 3% DMSO) in the absence or presence of compound. Next the amount of proteolysis is directly measured by fluorescence measurement at T=0′-120′ and T=450′ (excitation at 320 nm and emission at 405 nm). Results are expressed in RFU (Relative Fluorescence Units), as difference between T450 and Tx (Tx is chosen depending on the reaction speed between 0 and 120 minutes.).
A best-fit curve is fitted by a minimum sum of squares method to the plot of % Controlmin versus compound concentration. From this an IC50 value (inhibitory concentration causing 50% inhibition of activity) can be obtained.

BACE2 [8] = target: T2, BACE2; assay: BACE2 biochemical FRET based assay (Test Example 2-1 (2)); conditions: read-out: BACE2 IC50, 0.4 μg/mL BACE2, 450 minutes, Citrate buffer pH 5.0
From the text: This assay is a Fluorescence Resonance Energy Transfer Assay (FRET) based assay. The substrate for this assay contains the ‘Swedish’ Lys-Met/Asn-Leu mutation of the amyloid precursor protein (APP) beta-secretase cleavage site. This substrate also contains two fluorophores: (7-methoxycoumarin-4-yl) acetic acid (Mca) is a fluorescent donor with excitation wavelength at 320 nm and emission at 405 nm and 2,4-dinitrophenol (Dnp) is a proprietary quencher acceptor. […] Upon cleavage by the beta-secretase, the fluorophore Mca is separated from the quenching group Dnp, restoring the full fluorescence yield of the donor. The increase in fluorescence is linearly related to the rate of proteolysis. Briefly in a 384-well format recombinant BACE2 protein in a final concentration of 0.4 μg/mL was incubated for 450 minutes at room temperature with 10 μM substrate in incubation buffer (final concentrations: 33.3 mM Citrate buffer pH 5.0, 0.033% PEG, 2% DMSO) in the absence or presence of compound. Next the amount of proteolysis was directly measured by fluorescence measurement at T=0 and T=450 (excitation at 320 nm and emission at 405 nm). Results were expressed in RFU (Relative Fluorescence Units), as difference between T450 and TO.
A best-fit curve was fitted by a minimum sum of squares method to the plot of % Controlmin versus compound concentration. […]

SMILES | Ki (BACE1 [1]) [nM] | Ki (BACE2 [2]) [nM] | BACE1 Biochemical FRET based assay - Method 1 PIC50 (BACE1 [3]) | Cellular αLisa assay in SKNBE2 cells Abeta 42 pIC50 (BACE1 [4]) | BACE2 Biochemical FRET based assay pIC50 (BACE2 [5]) | Cellular MSD assay in Min6 cells TV1EV127 pIC50 (BACE2 [6]) | selectivity (BACE1 [7]) | IC50 (BACE1 [7]) [nM] | IC50 (BACE2 [8]) [nM]
[2H]C1([2H])Oc2cnc(C(=O)Nc3ccc(F)c([C@]4(CF)CC[C@@](C)(S(=O)(=O)CC)C(N)=N4)c3)cc2OC1([2H])[2H] | 0.14 | 63 | 8.75 | 8.54 | 6.5 | 6.52 | – | – | –
CN1C(N)=N[C@](C)(c2cc(NC(=O)c3ncc4c(c3Cl)OC(F)(F)O4)ccc2F)CS1(=O)=O | – | – | – | – | – | – | 17.4 | 3.2 | 55
Cc1c(C(=O)Nc2ccc(F)c([C@]3(C)CS(=O)(=O)N(C)C(N)=N3)c2)ncc2c1OC(F)(F)O2 | – | – | – | – | – | – | 14.1 | 4.1 | 57.5
